Measurements reported in PubChem BioAssay (NCI).
Some of these compounds have results that are not shown, active ones among them.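 Five compound concentrations were applied to cells in 96-well plates for 48 hours; endpoints were derived by simple linear interpolation of the resulting dose-response curve. GI50: concentration for 50% inhibition of growth. The concentration for full growth arrest is given as TGI.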

How the values were obtained:
Experiment in all cases: DTP human tumour cell line panel, 48 h
NCI-H322M lung = test system: NCI-H322M lung
LOX IMVI melanoma = test system: LOX IMVI melanoma
A549 NSCLC = test system: A549 NSCLC
HT29 colon = test system: HT29 colon
SW-620 colon = test system: SW-620 colon
SF-539 CNS = test system: SF-539 CNS
MDA-MB-435 = test system: MDA-MB-435
HCT-116 colon = test system: HCT-116 colon
SK-OV-3 ovarian = test system: SK-OV-3 ovarian
SK-MEL-28 melanoma = test system: SK-MEL-28 melanoma
UACC-62 melanoma = test system: UACC-62 melanoma
SR leukemia = test system: SR leukemia
RXF 393 renal = test system: RXF 393 renal
MALME-3M melanoma = test system: MALME-3M melanoma
U251 CNS = test system: U251 CNS
SNB-75 CNS = test system: SNB-75 CNS
CAKI-1 renal = test system: CAKI-1 renal
HOP-62 NSCLC = test system: HOP-62 NSCLC
COLO 205 colon = test system: COLO 205 colon
T-47D breast = test system: T-47D breast
UACC-257 melanoma = test system: UACC-257 melanoma
SF-268 CNS = test system: SF-268 CNS
EKVX NSCLC = test system: EKVX NSCLC
SN12C renal = test system: SN12C renal
NCI-H23 lung = test system: NCI-H23 lung
IGROV1 ovarian = test system: IGROV1 ovarian
RPMI-8226 leukemia = test system: RPMI-8226 leukemia
NCI/ADR-RES ovarian = test system: NCI/ADR-RES ovarian
OVCAR-5 ovarian = test system: OVCAR-5 ovarian
SK-MEL-5 melanoma = test system: SK-MEL-5 melanoma
KM12 colon = test system: KM12 colon
MDA-MB-231 breast = test system: MDA-MB-231 breast
TK-10 renal = test system: TK-10 renal
A498 renal = test system: A498 renal
HCC-2998 colon = test system: HCC-2998 colon
MOLT-4 leukemia = test system: MOLT-4 leukemia
NCI-H522 lung = test system: NCI-H522 lung
K-562 leukemia = test system: K-562 leukemia
HCT-15 colon = test system: HCT-15 colon
NCI-H460 lung = test system: NCI-H460 lung
MDA-N = test system: MDA-N
OVCAR-4 ovarian = test system: OVCAR-4 ovarian
ACHN renal = test system: ACHN renal
M14 melanoma = test system: M14 melanoma
HL-60(TB) leukemia = test system: HL-60(TB) leukemia
MCF7 breast = test system: MCF7 breast
NCI-H226 lung = test system: NCI-H226 lung
HS 578T breast = test system: HS 578T breast
SF-295 CNS = test system: SF-295 CNS
SNB-19 CNS = test system: SNB-19 CNS
OVCAR-3 ovarian = test system: OVCAR-3 ovarian
PC-3 prostate = test system: PC-3 prostate
UO-31 renal = test system: UO-31 renal
786-0 renal = test system: 786-0 renal
DU-145 prostate = test system: DU-145 prostate
CCRF-CEM leukemia = test system: CCRF-CEM leukemia
SK-MEL-2 melanoma = test system: SK-MEL-2 melanoma
OVCAR-8 ovarian = test system: OVCAR-8 ovarian
HOP-92 NSCLC = test system: HOP-92 NSCLC
BT-549 breast = test system: BT-549 breast

## O=C(OC1CCN(Cc2ccccc2)C1)C(O)(c1ccccc1)c1ccccc1 (stereo not given)
NCI-H322M lung
  TGI: > 100 µM
LOX IMVI melanoma
  TGI: > 100 µM
A549 NSCLC
  TGI: > 100 µM
HT29 colon
  TGI: > 100 µM
SW-620 colon
  TGI: > 100 µM
SF-539 CNS
  TGI: > 100 µM
MDA-MB-435
  TGI: > 100 µM
HCT-116 colon
  TGI: > 100 µM
SK-OV-3 ovarian
  TGI: > 100 µM
SK-MEL-28 melanoma
  TGI: > 100 µM
UACC-62 melanoma
  TGI: > 100 µM
SR leukemia
  TGI: > 100 µM
RXF 393 renal
  TGI: > 100 µM
MALME-3M melanoma
  TGI: > 100 µM
U251 CNS
  TGI: > 100 µM
SNB-75 CNS
  TGI: > 100 µM
CAKI-1 renal
  TGI: > 100 µM
HOP-62 NSCLC
  TGI: > 100 µM
COLO 205 colon
  TGI: > 100 µM
T-47D breast
  TGI: > 100 µM
UACC-257 melanoma
  TGI: > 100 µM
SF-268 CNS
  TGI: > 100 µM
EKVX NSCLC
  TGI: > 100 µM
SN12C renal
  TGI: > 100 µM
NCI-H23 lung
  TGI: > 100 µM
IGROV1 ovarian
  TGI: > 100 µM
RPMI-8226 leukemia
  TGI: > 100 µM
NCI/ADR-RES ovarian
  TGI: > 100 µM
OVCAR-5 ovarian
  TGI: > 100 µM
SK-MEL-5 melanoma
  TGI: > 100 µM
KM12 colon
  TGI: > 100 µM
MDA-MB-231 breast
  TGI: > 100 µM
TK-10 renal
  TGI: > 100 µM
A498 renal
  TGI: > 100 µM
HCC-2998 colon
  TGI: > 100 µM
MOLT-4 leukemia
  TGI: > 100 µM
NCI-H522 lung
  TGI: > 100 µM
K-562 leukemia
  TGI: > 100 µM
HCT-15 colon
  TGI: > 100 µM
NCI-H460 lung
  TGI: > 100 µM
MDA-N
  TGI: > 100 µM
OVCAR-4 ovarian
  TGI: > 100 µM
ACHN renal
  TGI: > 100 µM
M14 melanoma
  TGI: > 100 µM
HL-60(TB) leukemia
  TGI: > 100 µM
MCF7 breast
  TGI: > 100 µM
NCI-H226 lung
  TGI: > 100 µM
HS 578T breast
  TGI: > 100 µM
SF-295 CNS
  TGI: > 100 µM
SNB-19 CNS
  TGI: > 100 µM
OVCAR-3 ovarian
  TGI: > 100 µM
PC-3 prostate
  TGI: > 100 µM
UO-31 renal
  TGI: > 100 µM
786-0 renal
  TGI: > 100 µM
DU-145 prostate
  TGI: > 100 µM
CCRF-CEM leukemia
  TGI: > 100 µM
SK-MEL-2 melanoma
  TGI: > 100 µM
OVCAR-8 ovarian
  TGI: > 100 µM

## CC#CC(O)(C#CC)C(=O)OC1CN2CCC1CC2 (stereo not given)
NCI-H322M lung
  GI50: > 100 µM
  TGI: > 100 µM
LOX IMVI melanoma
  GI50: > 100 µM
  TGI: > 100 µM
A549 NSCLC
  GI50: > 100 µM
  TGI: > 100 µM
HT29 colon
  GI50: > 100 µM
  TGI: > 100 µM
SF-539 CNS
  GI50: > 100 µM
  TGI: > 100 µM
MDA-MB-435
  GI50: > 100 µM
  TGI: > 100 µM
HCT-116 colon
  GI50: > 100 µM
  TGI: > 100 µM
SK-OV-3 ovarian
  GI50: > 100 µM
  TGI: > 100 µM
SK-MEL-28 melanoma
  GI50: > 100 µM
  TGI: > 100 µM
UACC-62 melanoma
  GI50: > 100 µM
  TGI: > 100 µM
SR leukemia
  GI50: > 100 µM
  TGI: > 100 µM
RXF 393 renal
  GI50: > 100 µM
  TGI: > 100 µM
MALME-3M melanoma
  GI50: > 100 µM
  TGI: > 100 µM
U251 CNS
  GI50: > 100 µM
  TGI: > 100 µM
SNB-75 CNS
  GI50: > 100 µM
  TGI: > 100 µM
CAKI-1 renal
  GI50: > 100 µM
  TGI: > 100 µM
HOP-62 NSCLC
  GI50: > 100 µM
  TGI: > 100 µM
COLO 205 colon
  GI50: > 100 µM
  TGI: > 100 µM
T-47D breast
  GI50: > 100 µM
  TGI: > 100 µM
UACC-257 melanoma
  GI50: > 100 µM
  TGI: > 100 µM
SF-268 CNS
  GI50: > 100 µM
  TGI: > 100 µM
EKVX NSCLC
  GI50: > 100 µM
  TGI: > 100 µM
SN12C renal
  GI50: > 100 µM
  TGI: > 100 µM
NCI-H23 lung
  GI50: > 100 µM
  TGI: > 100 µM
IGROV1 ovarian
  GI50: > 100 µM
  TGI: > 100 µM
RPMI-8226 leukemia
  GI50: > 100 µM
  TGI: > 100 µM
NCI/ADR-RES ovarian
  GI50: > 100 µM
  TGI: > 100 µM
OVCAR-5 ovarian
  GI50: > 100 µM
  TGI: > 100 µM
SK-MEL-5 melanoma
  GI50: > 100 µM
  TGI: > 100 µM
MDA-MB-231 breast
  GI50: > 100 µM
  TGI: > 100 µM
HOP-92 NSCLC
  GI50: > 100 µM
  TGI: > 100 µM
TK-10 renal
  GI50: > 100 µM
  TGI: > 100 µM
A498 renal
  GI50: > 100 µM
  TGI: > 100 µM
BT-549 breast
  GI50: > 100 µM
  TGI: > 100 µM
MOLT-4 leukemia
  GI50: > 100 µM
  TGI: > 100 µM
NCI-H522 lung
  GI50: > 100 µM
  TGI: > 100 µM
K-562 leukemia
  GI50: > 100 µM
  TGI: > 100 µM
HCT-15 colon
  GI50: > 100 µM
  TGI: > 100 µM
MDA-N
  GI50: > 100 µM
  TGI: > 100 µM
OVCAR-4 ovarian
  GI50: > 100 µM
  TGI: > 100 µM
ACHN renal
  GI50: > 100 µM
  TGI: > 100 µM
M14 melanoma
  GI50: > 100 µM
  TGI: > 100 µM
HL-60(TB) leukemia
  GI50: > 100 µM
  TGI: > 100 µM
MCF7 breast
  GI50: > 100 µM
  TGI: > 100 µM
NCI-H226 lung
  GI50: > 100 µM
  TGI: > 100 µM
HS 578T breast
  GI50: > 100 µM
  TGI: > 100 µM
SF-295 CNS
  GI50: > 100 µM
  TGI: > 100 µM
SNB-19 CNS
  GI50: > 100 µM
  TGI: > 100 µM
OVCAR-3 ovarian
  GI50: > 100 µM
  TGI: > 100 µM
PC-3 prostate
  GI50: > 100 µM
  TGI: > 100 µM
UO-31 renal
  GI50: > 100 µM
  TGI: > 100 µM
786-0 renal
  GI50: > 100 µM
  TGI: > 100 µM
DU-145 prostate
  GI50: > 100 µM
  TGI: > 100 µM
CCRF-CEM leukemia
  GI50: > 100 µM
  TGI: > 100 µM
SK-MEL-2 melanoma
  GI50: > 100 µM
  TGI: > 100 µM
OVCAR-8 ovarian
  GI50: > 100 µM
  TGI: > 100 µM
